System: LL1-BT-474-J4 (J4) breast cell clone
Test: CellTiter-Glo cell growth inhibition assay, LL1-BT-474-J4
Type: cell-based
Excerpt: Combination Index values>1.10 indicated antagonism.

trastuzumab: Herceptin® (trastuzumab)
sensitivity of the cell line to the agent (in words): resistant

Reference: patent US20120035183A1, “Cancer Treatment Method” (priority 2008, published 2012)
